Tests used:
Experiment in all cases: SPR
[1] = molecular target: T1, human FcγRIIb, extracellular region (human, UniProt P31994 43-217)
T1 chain: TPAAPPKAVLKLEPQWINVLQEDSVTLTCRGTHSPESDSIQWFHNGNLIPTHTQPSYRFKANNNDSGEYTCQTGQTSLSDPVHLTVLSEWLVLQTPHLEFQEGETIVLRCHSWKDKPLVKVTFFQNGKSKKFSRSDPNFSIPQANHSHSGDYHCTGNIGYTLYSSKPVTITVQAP

[2] = molecular target: T2, human R131 FcγRIIa, extracellular region (human, UniProt P12318 34-217)
T2 chain: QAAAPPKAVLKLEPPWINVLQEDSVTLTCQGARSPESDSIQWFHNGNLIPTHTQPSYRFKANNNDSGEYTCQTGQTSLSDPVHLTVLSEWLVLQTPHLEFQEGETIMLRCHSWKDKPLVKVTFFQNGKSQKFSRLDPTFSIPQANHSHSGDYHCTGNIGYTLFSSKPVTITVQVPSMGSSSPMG

[3] = molecular target: T3, human FcγRI, extracellular region (human, UniProt P12314 16-292)
T3 chain: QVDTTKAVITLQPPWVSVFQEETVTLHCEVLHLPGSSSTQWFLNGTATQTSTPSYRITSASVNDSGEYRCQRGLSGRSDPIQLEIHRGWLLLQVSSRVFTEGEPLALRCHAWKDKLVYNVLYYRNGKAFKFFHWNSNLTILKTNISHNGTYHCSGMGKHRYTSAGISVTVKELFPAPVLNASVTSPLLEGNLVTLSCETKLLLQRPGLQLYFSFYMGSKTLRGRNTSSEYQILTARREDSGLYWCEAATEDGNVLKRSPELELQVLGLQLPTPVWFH

B1: WT IgG4 (antibody)
chain: ASTKGPSVFPLAPCSRSTSESTAALGCLVKDYFPEPVTVSWNSGALTSGVHTFPAVLQSSGLYSLSSVVTVPSSSLGTKTYTCNVDHKPSNTKVDKRVESKYGPPCPSCPAPEFLGGPSVFLFPPKPKDTLMISRTPEVTCVVVDVSQEDPEVQFNWYVDGVEVHNAKTKPREEQFNSTYRVVSVLTVLHQDWLNGKEYKCKVSNKGLPSSIEKTISKAKGQPREPQVYTLPPSQEEMTKNQVSLTCLVKGFYPSDIAVEWESNGQPENNYKTTPPVLDSDGSFFLYSRLTVDKSRWQEGNVFSCSVMHEALHNHYTQKSLSLSLGK
- Kd [1]: 2 µM
- Kd [2]: 4.07 µM
- Kd [3]: 0.00832 µM

Source: patent US20170166655A1 (published 2017)
